US8288548B2, “Oxazolo[5-4-b]pyridin-5-yl compounds” (Eli Lilly and Company, priority 2010, dated 2012)

Tested on: 786-O human renal cell carcinoma cells
Experiment: 786-O xenograft model in combination with sunitinib
Format: in vivo, athymic nude mice
Details: Sunitinib 10 mg/kg PO, BID x 28; Day 31
Procedure: Female athymic nude mice are obtained from Harlan Labs at a weight of 24-26 g. After 1 week acclimation, 5×10^6 786-O human renal cell carcinoma cells are injected subcutaneously in the rear flank of each mouse in a 0.2 mL volume in a 1:1 mixture of cell culture media and BD MATRIGEL™ matrix. Tumor size is monitored by caliper measurement twice per week. […] The compound is dosed orally in a 0.2 mL volume of 1% HEC, 0.25% TWEEN® 80, 0.05% antifoam (HEC/TWEEN®). Dosing is performed twice per day (BID) at 15 mg/kg either alone or in combination with 10 mg/kg or 20 mg/kg of sunitinib, also dosed orally BID in the same vehicle. Tumor volume is monitored twice per week and efficacy (tumor growth inhibition) is compared relative to vehicle-treated control animals. […] Statistical assessment of synergy was performed using two-way repeated measures analysis of variance on log tumor volume vs. time.

Q: `CCN(CC)CCNC(=O)c1c(C)[nH]c(/C=C2\C(=O)Nc3ccc(F)cc32)c1C` [Sunitinib] was tested. Which “% Tumor Growth Inhibition” value did it give?
A: −27.7%
